Experimental findings from ChEMBL document CHEMBL1148420, “Identification and synthesis of [1,2,4]triazolo[3,4-a]phthalazine derivatives as high-affinity ligands to the alpha 2 delta-1 subunit of voltage gated calcium channel” (Bioorg Med Chem Lett, 2004) are described below.

Amino acid sequences for entries named in this document (tags omitted). Residues count along the entry.
UniProt P54289, 957-1103 limits assumed: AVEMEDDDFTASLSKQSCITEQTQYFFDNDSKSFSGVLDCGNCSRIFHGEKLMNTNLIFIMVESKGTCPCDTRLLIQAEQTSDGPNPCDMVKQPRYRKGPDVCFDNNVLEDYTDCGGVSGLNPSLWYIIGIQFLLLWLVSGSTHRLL
UniProt P54289, 25-956 limits assumed: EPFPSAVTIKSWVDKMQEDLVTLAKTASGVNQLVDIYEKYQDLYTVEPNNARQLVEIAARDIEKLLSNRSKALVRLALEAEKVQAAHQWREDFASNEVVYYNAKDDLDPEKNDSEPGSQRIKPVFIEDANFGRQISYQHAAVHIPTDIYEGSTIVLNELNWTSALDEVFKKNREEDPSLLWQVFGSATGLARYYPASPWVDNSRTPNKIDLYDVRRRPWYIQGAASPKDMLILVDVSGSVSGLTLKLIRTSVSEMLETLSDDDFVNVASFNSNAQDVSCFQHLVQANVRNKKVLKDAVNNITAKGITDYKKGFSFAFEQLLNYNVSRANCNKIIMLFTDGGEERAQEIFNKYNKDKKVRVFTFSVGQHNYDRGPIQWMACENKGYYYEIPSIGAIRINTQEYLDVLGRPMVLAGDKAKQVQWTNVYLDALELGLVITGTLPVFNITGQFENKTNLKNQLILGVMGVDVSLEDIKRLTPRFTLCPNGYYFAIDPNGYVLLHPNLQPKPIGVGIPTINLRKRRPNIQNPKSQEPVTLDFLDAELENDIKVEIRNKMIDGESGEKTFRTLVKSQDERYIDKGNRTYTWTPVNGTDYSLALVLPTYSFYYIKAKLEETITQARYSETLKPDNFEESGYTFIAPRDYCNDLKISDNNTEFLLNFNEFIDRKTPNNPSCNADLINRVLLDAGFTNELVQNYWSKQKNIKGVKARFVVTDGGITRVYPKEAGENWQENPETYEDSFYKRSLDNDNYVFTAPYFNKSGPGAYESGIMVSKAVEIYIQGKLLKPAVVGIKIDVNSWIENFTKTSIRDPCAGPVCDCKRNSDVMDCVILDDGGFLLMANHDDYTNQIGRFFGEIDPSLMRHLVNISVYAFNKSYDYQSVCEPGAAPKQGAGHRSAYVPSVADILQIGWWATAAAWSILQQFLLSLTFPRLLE

The assay deals with Voltage-dependent calcium channel subunit alpha-2/delta-1 (Homo sapiens, UniProt P54289). Nature of the assay: Binding affinity against alpha-2 delta-1 subunit of voltage gated subunit of Ca+2 channel in human. An outline of the steps:
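[3H]gabapentin displacement binding on A710 membranes (HEK 293 cells stably transfected with human α1B, β3a and α2δ-1b subunits), following a literature method.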

pIC50: −log10 of the molar value.

As a reminder, the pIC50 is −log10 of the IC50, conventionally taken in molar units. Regarding `COc1ccccc1CCNCc1cccc(COc2nn3c(C(F)(F)F)nnc3c3ccccc23)n1`, the pIC50 is 5.50.
